Data on one molecule can be found in the RepoRT retention time repository (doi:10.1016/j.chroma.2014.05.003).

The data set is described as follows: RP, Agilent ZORBAX Eclipse Plus C18, 50 × 4.6 mm, 1.8 µm, 0.5 mL/min, estimated dead time 1.1 min; A: water + 0.1% formic acid; B: acetonitrile + 0.1% formic acid; gradient (min/%B) 0/10 3/10 25/100 28/100. As to conditions: stereoisomer not certain.

Take `CCOP(=S)(OCC)Oc1ncn(-c2ccccc2)n1`: the LC retention time is 17.1 min.
